{"source": "PubChem BioAssay (Tox21)", "note": "The entries are a selection whose mix differs from that of the whole data set. Inconclusive results are not listed. Active and inactive are the calls of the source. Calls come from the whole dose curve. % is set by controls: 0 for no effect and ±100 for the full control effect; potency is the fitted concentration of half-maximal effect.", "data": [{"assay": "qHTS assay to identify small molecule agonists of the endoplasmic reticulum stress response signaling pathway - cell viability counter screen (AID 1159517); note: nearly all actives have a fitted effect of over 50% in size", "settings": "ESRE-bla HeLa viability, CellTiter-Glo luminescence, 5 h; series mostly up to 61 µM; activity change, negative = cytotoxicity: at the top concentration", "text": "U.S. Tox21 Program National Center for Advancing Translational Sciences [NCATS] NIH Chemical Genomics Center [NCGC] U.S. Environmental Protection Agency [EPA] National Institutes of Environmental Health Sciences [NIEHS] National Toxicology Program [NTP] U.S. Food and Drug Administration [FDA] Tox21 Assay Overview: Endoplasmic Reticulum (ER) plays an important role in cellular signaling, protein folding/maturation, stress response, lipid biosynthesis, calcium storage and release etc. Under stress conditions, proteins in ER misfold or unfold, and leading to the expression of ER stress responsive genes. ER stress has been associated with a variety of pathophysiological conditions such as cancer, inflammation, neurodegenerative diseases, diabetes, ischemic heart disease etc. To identify the compounds that induce ER stress response, an ER stress reporter cell line, CellSensor ESRE-bla HeLa (Life Technologies, Carlsbad, CA) containing a beta-lactamase reporter gene under control of the Endoplasmic reticulum Stress Response Element (ESRE) was used to screen Tox21 10K compound library. The cytotoxicity of the Tox21 compound library against the ESRE-bla HeLa cell line was tested in parallel by measuring cell viability using the CellTiter-Glo assay in the same wells.\nTox21 Assay Protocol Summary: ESRE-bla HeLa cells were dispensed at 1,500 cells/6 uL of assay medium per well into black wall/clear-bottom 1536-well plates using a Multidrop Combi (ThermoFisher Scientific, Waltham, MA) dispenser. After the assay plates were incubated at 37 C and 5% CO2 for an overnight, 23 nL of compounds dissolved in DMSO, positive controls or DMSO only was transferred to the assay plate by a Pintool station (Kalypsys, San Diego, CA). The assay plates were incubated at 37 C and 5% CO2 for 5 hr. One uL of LiveBLAzer B/G FRET substrate (Life Technologies) was added using a FRD (Flying Reagent Dispenser, Aurora Discovery, San Diego, CA) and the plates were incubated at room temperature for 2 hr. Fluorescence intensity (405 nm excitation, 460 nm and 530 nm emissions) was measured using an Envision plate reader (PerkinElmer, Shelton, CT). For cytotoxicity, 4 ul/well of CellTiter-Glo reagent was added into the assay plates using an FRD. After 30 min incubation at room temperature, the luminescence intensity was measured using a ViewLux plate reader (PerkinElmer).", "values": [{"smiles": "CCOC(=O)Cl", "activity change, negative = cytotoxicity": "inactive: 5.74%"}, {"smiles": "O=[N+]([O-])c1ccc(S(=O)(=O)O)c([N+](=O)[O-])c1", "activity change, negative = cytotoxicity": "inactive: 8.32% [at 78.8 µM]"}, {"smiles": "Cc1cc([N+](=O)[O-])c(O)c([N+](=O)[O-])c1", "activity change, negative = cytotoxicity": "inactive: 2.61% [at 78.8 µM]"}, {"smiles": "O=P(Cl)(Oc1ccccc1)Oc1ccccc1", "activity change, negative = cytotoxicity": "inactive: 2.1%"}, {"smiles": "CCOP(=S)(CC)Sc1ccccc1", "note": "(stereo unspecified)", "activity change, negative = cytotoxicity": "inactive: 5.48%"}, {"smiles": "NC(=O)Nc1ccc([As](=O)(O)O)cc1", "Potency": "inactive"}, {"smiles": "O=[P+](Oc1ccccc1)Oc1ccccc1", "activity change, negative = cytotoxicity": "inactive: 3.27%"}, {"smiles": "COC(=O)Cl", "activity change, negative = cytotoxicity": "inactive: 3.75%"}, {"smiles": "CN(C(=O)Cc1cccc2occc12)[C@H]1CC[C@@]2(CCCO2)C[C@@H]1N1CCCC1", "activity change, negative = cytotoxicity": "inactive: -0.442%"}, {"smiles": "CCCCC(CC)CO[P+](=O)OCC(CC)CCCC", "note": "(stereo unspecified)", "activity change, negative = cytotoxicity": "inactive: 0.422%"}, {"smiles": "CC(C)CCCCCCCOP(OCCCCCCCC(C)C)Oc1ccccc1", "activity change, negative = cytotoxicity": "inactive: -5.96%"}, {"smiles": "O=[As]c1ccccc1", "note": "(stereo unspecified)", "Potency": "active: 549 nM"}, {"smiles": "O=[p+]1oc2ccccc2c2ccccc21", "note": "(stereo unspecified)", "activity change, negative = cytotoxicity": "inactive: -0.997%"}, {"smiles": "O=P(Cl)(Cl)c1ccccc1", "activity change, negative = cytotoxicity": "inactive: 1.78%"}, {"smiles": "CCNC(C)Cc1ccc2c(c1)OCO2", "note": "(stereo unspecified)", "activity change, negative = cytotoxicity": "inactive: -16% [at 78.8 µM]"}, {"smiles": "ClP(Cl)c1ccccc1", "activity change, negative = cytotoxicity": "inactive: -4.51%"}, {"smiles": "CN(C(=O)Cc1ccccc1)[C@H]1CC[C@@]2(CCCO2)C[C@@H]1N1CCCC1", "activity change, negative = cytotoxicity": "inactive: -8.25%"}, {"smiles": "CC(C)OP(=S)(OC(C)C)SCCNS(=O)(=O)c1ccccc1", "activity change, negative = cytotoxicity": "inactive: -4.38%"}, {"smiles": "Cc1cc([N+](=O)[O-])cc([N+](=O)[O-])c1O", "activity change, negative = cytotoxicity": "inactive: -4.74%"}, {"smiles": "COP(=S)(Cl)OC", "activity change, negative = cytotoxicity": "inactive: 3.57% [at 78.8 µM]"}, {"smiles": "CCCCO[P+](=O)OCCCC", "Potency": "inactive"}]}]}
